Protein sequences, listed by entry. Tags and fused reporters are not part of them. Residues count along the entry.
UniProt P00747, 581-810 limits assumed: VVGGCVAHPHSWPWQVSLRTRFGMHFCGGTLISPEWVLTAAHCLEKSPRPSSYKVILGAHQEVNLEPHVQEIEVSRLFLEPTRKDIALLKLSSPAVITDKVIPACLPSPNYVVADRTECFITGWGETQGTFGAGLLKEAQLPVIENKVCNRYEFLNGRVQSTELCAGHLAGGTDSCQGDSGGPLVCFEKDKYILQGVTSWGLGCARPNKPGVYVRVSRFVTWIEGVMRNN
UniProt P00747, 97-580 partner limits assumed: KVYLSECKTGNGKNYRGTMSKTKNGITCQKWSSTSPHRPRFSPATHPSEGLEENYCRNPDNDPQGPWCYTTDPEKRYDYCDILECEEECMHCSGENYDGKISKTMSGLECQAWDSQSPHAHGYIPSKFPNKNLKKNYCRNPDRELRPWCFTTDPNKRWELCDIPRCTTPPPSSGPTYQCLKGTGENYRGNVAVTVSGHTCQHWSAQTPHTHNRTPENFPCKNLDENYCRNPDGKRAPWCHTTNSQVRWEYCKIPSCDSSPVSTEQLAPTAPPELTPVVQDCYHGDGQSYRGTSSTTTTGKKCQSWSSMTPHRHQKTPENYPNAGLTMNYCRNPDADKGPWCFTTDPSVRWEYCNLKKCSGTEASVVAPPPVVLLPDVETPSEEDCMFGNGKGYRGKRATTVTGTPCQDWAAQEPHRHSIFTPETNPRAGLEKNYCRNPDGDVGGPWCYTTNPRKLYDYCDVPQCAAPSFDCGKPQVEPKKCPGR
UniProt P00760, 24-246 limits assumed: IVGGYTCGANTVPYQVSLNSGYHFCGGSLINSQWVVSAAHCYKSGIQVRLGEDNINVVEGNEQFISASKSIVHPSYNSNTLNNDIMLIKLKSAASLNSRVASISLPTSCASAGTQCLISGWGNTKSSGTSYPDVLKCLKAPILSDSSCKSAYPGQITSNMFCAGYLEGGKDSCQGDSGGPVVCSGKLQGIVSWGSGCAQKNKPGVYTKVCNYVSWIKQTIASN
UniProt P03952, 391-638 limits assumed: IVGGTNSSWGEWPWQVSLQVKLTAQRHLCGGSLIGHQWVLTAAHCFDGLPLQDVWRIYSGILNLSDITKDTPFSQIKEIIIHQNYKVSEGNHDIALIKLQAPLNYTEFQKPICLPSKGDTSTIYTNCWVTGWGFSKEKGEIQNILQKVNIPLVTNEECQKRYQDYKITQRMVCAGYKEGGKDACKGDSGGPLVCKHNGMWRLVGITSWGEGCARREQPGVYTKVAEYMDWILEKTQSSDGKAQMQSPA
UniProt P03952, 20-390 partner limits assumed: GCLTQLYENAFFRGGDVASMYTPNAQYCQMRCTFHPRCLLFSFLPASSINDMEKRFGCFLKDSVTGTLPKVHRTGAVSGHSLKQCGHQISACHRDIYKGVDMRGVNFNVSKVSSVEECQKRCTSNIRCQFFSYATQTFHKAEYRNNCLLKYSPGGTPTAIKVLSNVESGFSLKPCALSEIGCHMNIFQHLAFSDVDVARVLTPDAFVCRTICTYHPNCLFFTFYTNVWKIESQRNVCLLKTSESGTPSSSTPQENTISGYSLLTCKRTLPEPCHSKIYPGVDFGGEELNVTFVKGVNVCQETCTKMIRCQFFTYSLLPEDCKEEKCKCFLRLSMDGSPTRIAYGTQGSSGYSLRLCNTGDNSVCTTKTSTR
UniProt P00742, 235-488 limits assumed: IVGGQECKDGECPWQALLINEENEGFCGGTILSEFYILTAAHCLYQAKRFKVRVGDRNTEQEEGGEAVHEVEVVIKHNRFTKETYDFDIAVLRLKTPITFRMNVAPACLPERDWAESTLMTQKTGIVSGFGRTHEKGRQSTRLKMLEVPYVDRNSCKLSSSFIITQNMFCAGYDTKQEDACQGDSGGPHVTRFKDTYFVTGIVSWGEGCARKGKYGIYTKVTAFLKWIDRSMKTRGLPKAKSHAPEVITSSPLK
UniProt P00742, 41-179 partner limits assumed: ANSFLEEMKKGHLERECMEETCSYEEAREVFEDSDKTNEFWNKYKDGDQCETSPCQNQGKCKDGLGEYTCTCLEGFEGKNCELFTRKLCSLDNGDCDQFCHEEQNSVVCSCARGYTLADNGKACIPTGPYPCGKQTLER

In patent US4883863A, “Tripeptide derivatives and antiplasmin agents containing the same” (Nitto Boseki Co., Ltd., priority 1987, dated 1989):

Tests used:
Assay type in all cases: biochemical
[1] = target: T1, plasmin (Homo sapiens, UniProt P00747); experiment: Plasmin-inhibiting activity, synthetic substrate PS-994; conditions: read-out: Synthetic substrate IC50 Plasmin, Table 4, PS-994, pH 7.8, 37° C.
[2] = target: thrombin (Homo sapiens, UniProt P00734); experiment: Thrombin-inhibiting activity, synthetic substrate PS-915; conditions: read-out: Synthetic substrate IC50 Thrombin, Table 4, PS-915, pH 8.5, 37° C.
[3] = target: trypsin (Bos taurus, UniProt P00760); experiment: Trypsin-inhibiting activity, synthetic substrate PS-915; conditions: read-out: Synthetic substrate IC50 Trypsin, Table 4, PS-915, pH 8.0, 37° C.
[4] = target: human plasma kallikrein (Homo sapiens, UniProt P03952); experiment: Kallikrein-inhibiting activity, synthetic substrate S-2302; conditions: read-out: Synthetic substrate IC50 Kallikrein, S-2302, pH 8.0, 37° C.
[5] = target: human Factor Xa (Homo sapiens, UniProt P00742); experiment: Factor Xa-inhibiting activity, synthetic substrate PS-2000; conditions: read-out: Synthetic substrate IC50 Factor Xa, PS-2000, pH 8.5, 37° C.
[6] = target: T1, plasmin; experiment: Inhibitory activity on fibrin decomposition by plasmin (natural substrate); conditions: read-out: Natural substrate IC50 Fibrin, concentration doubling time for complete dissolution, 25° C.

Compound | IC50 ([1]; tested form: HCl) [µM] | IC50 ([2]; tested form: HCl) [µM] | IC50 ([3]; tested form: HCl) [µM] | IC50 ([4]; Table 4, tested form: HCl) [µM] | IC50 ([5]; Table 4, tested form: HCl) [µM] | IC50 ([6]; Table 4, tested form: HCl) [µM] | IC50 ([4]; Table 3, tested form: 2CH3SO3H) [µM] | IC50 ([5]; Table 3, tested form: 2CH3SO3H) [µM] | IC50 ([6]; Table 3, tested form: mesylate) [µM] | IC50 ([1]; tested form: 2HCl) [µM] | IC50 ([2]; tested form: 2HCl) [µM] | IC50 ([3]; tested form: 2HCl) [µM] | IC50 ([4]; Table 4, tested form: 2HCl) [µM] | IC50 ([5]; Table 4, tested form: 2HCl) [µM] | IC50 ([6]; Table 4, tested form: 2HCl) [µM]
Cc1ccc(S(=O)(=O)NCCCC[C@@H](NS(=O)(=O)c2ccc(Cl)cc2)C(=O)N[C@@H](Cc2ccccc2)C(=O)N[C@@H](CCCCN)C(=O)CCl)cc1 | 0.013 | 1.4 | 0.058 | 0.032 | 2.5 | 0.1 | – | – | – | – | – | – | – | – | –
CCS(=O)(=O)N[C@H](CCCCNS(=O)(=O)c1ccc(C)cc1)C(=O)N[C@@H](Cc1ccccc1)C(=O)N[C@@H](CCCCN)C(=O)CCl | 0.002 | 0.11 | 0.015 | 0.0038 | 0.74 | 0.09 | – | – | – | – | – | – | – | – | –
Cc1ccc(C(=O)N[C@H](CCCCNS(=O)(=O)c2ccc(C)cc2)C(=O)N[C@@H](Cc2ccccc2)C(=O)N[C@@H](CCCCN)C(=O)CCl)cc1 | 0.054 | 3.4 | 0.48 | 0.058 | 3.7 | 0.78 | – | – | – | – | – | – | – | – | –
N=C(N)Nc1ccc(C(=O)Oc2ccc3cc(C(=N)N)ccc3c2)cc1 [Nafamstat] | – | – | – | – | – | – | 0.00089 | 4.1 | – | – | – | – | – | – | –
Cc1ccc(S(=O)(=O)NCCCC[C@@H](NS(C)(=O)=O)C(=O)N[C@@H](Cc2ccccc2)C(=O)N[C@@H](CCCCN)C(=O)CCl)cc1 | 0.0035 | 0.2 | 0.03 | 0.0058 | 1.3 | 0.11 | – | – | – | – | – | – | – | – | –
Cc1ccc(S(=O)(=O)NCCCC[C@@H](NS(=O)(=O)c2ccc3ccccc3c2)C(=O)N[C@@H](Cc2ccccc2)C(=O)N[C@H](C=O)CCCCN)cc1 | 0.016 | > 100 | 3.5 | 0.79 | 22 | 0.78 | – | – | – | – | – | – | – | – | –
Cc1ccc(S(=O)(=O)NCCCC[C@@H](NC(=O)Cc2ccccc2)C(=O)N[C@@H](Cc2ccccc2)C(=O)N[C@@H](CCCCN)C(=O)CCl)cc1 | 0.11 | 7.8 | 0.89 | 0.071 | 8.3 | 1 | – | – | – | – | – | – | – | – | –
CCOC(=O)c1ccc(OC(=O)CCCCCNC(=N)N)cc1 | – | – | – | – | – | – | – | – | 14 | – | – | – | – | – | –
Cc1ccc(S(=O)(=O)NCCCC[C@@H](NC(=O)OCC(C)C)C(=O)N[C@@H](Cc2ccccc2)C(=O)N[C@@H](CCCCN)C(=O)N2CCC(Cc3ccccc3)CC2)cc1 | > 1000 | > 1000 | > 1000 | > 1000 | > 1000 | 210 | – | – | – | – | – | – | – | – | –
Cc1ccc(S(=O)(=O)NCCCC[C@@H](NC(=O)COc2ccccc2)C(=O)N[C@@H](Cc2ccccc2)C(=O)N[C@@H](CCCCN)C(=O)CCl)cc1 | 0.025 | 2 | 0.22 | 0.02 | 5.5 | 0.34 | – | – | – | – | – | – | – | – | –
CC(=O)N[C@H](CCCCNS(=O)(=O)c1ccc(C)cc1)C(=O)N[C@@H](Cc1ccccc1)C(=O)N[C@@H](CCCCN)C(=O)CCl | 0.03 | 15 | 0.66 | 0.22 | 38 | 1 | – | – | – | – | – | – | – | – | –
Cc1ccc(S(=O)(=O)NCCCC[C@@H](N)C(=O)N[C@@H](Cc2ccccc2)C(=O)N[C@@H](CCCCN)C(=O)CCl)cc1 | – | – | – | – | – | – | – | – | – | 0.0071 | 7.8 | 0.13 | 0.046 | 21 | 0.28
Cc1ccc(S(=O)(=O)Oc2ccc(CC(NC(=O)OCC(C)C)C(=O)N[C@@H](Cc3ccccc3)C(=O)N[C@H](C=O)CCCCN)cc2)cc1 (stereo partly drawn) | 0.03 | > 1000 | 5.2 | 2.9 | 7.1 | 0.48 | – | – | – | – | – | – | – | – | –
Cc1ccc(S(=O)(=O)NCCCC[C@@H](NC=O)C(=O)N[C@@H](Cc2ccccc2)C(=O)N[C@@H](CCCCN)C(=O)CCl)cc1 | 0.02 | 10 | 0.15 | 0.043 | 13 | 0.38 | – | – | – | – | – | – | – | – | –

Read-outs that look alike come from different tables or passages of the source.
